Measured values: publication PMC11662004 (Communications Chemistry, 2024)

Target: T1, NgTet1 (Naegleria gruberi, UniProt D2W6T1)
T1 construct: His6-tagged full-length Naegleria gruberi NgTet1 (321 a. a.) protein with a thrombin cleavage site; made in house; host or cells: E. coli BL21(DE3)
T1 sequence (D2W6T1 1-321): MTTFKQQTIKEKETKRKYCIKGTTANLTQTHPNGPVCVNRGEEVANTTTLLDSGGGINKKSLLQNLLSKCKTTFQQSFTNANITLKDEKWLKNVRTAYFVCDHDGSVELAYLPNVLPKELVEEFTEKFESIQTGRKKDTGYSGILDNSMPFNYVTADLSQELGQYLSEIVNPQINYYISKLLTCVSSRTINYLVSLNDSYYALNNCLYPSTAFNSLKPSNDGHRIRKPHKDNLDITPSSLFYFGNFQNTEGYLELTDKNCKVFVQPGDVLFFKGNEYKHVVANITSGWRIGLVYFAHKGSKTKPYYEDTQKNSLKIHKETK
Format: biochemical
Conditions: 20 µM 5mC DNA vs no DNA
Experimental: Double-stranded 12 bp DNA oligomers were added at a final concentration of 20 µM. […]
Double-stranded DNA oligomers were added at a final concentration of 20 µM. […]
All ^1H NMR spectra were recorded at 25 °C using D2O as a reference for internal deuterium lock on a Bruker Avance III 700 MHz equipped with an inverse TCI cryoprobe in 3 or 5 mm diameter tubes with a total sample volume of 160 or 565 μL, respectively. The water signal was reduced using Perfect Echo excitation sculpting suppression. Chemical shifts are reported in ppm relative to D2O (δH = 4.70 ppm).
Spectrometer settings were determined using a control sample containing all reaction components excluding enzyme. TET enzyme was added to an identical sample, and the resulting assay mixture was transferred to an NMR tube before deposition into the instrument. […] Spectrum recordings were carried out consecutively without delay. Data were processed using automated routines on MestReNova v14.2.0; signals of interest were integrated with absolute intensity scaling. ^1H NMR time courses reported in figures are representative results from two or three independent replicates.

Q: With O=C(O)CCC(=O)C(=O)O [2OG, 2-oxoglutarate] as the compound, how does the “enhancement of maximum 2OG decarboxylation rate on substrate saturation” value read?
A: 3 fold

Q: And the “increase of apparent catalytic efficiency on substrate saturation” value?
A: 5 fold
